Measured values as given in patent US5663295A, “Opioid peptides” (Biomeasure Inc., priority 1994, dated 1997).
Where two headings read alike, the source gives them in different places.

Amino acid sequences for entries named in this document (tags omitted).
UniProt P33535, whole entry: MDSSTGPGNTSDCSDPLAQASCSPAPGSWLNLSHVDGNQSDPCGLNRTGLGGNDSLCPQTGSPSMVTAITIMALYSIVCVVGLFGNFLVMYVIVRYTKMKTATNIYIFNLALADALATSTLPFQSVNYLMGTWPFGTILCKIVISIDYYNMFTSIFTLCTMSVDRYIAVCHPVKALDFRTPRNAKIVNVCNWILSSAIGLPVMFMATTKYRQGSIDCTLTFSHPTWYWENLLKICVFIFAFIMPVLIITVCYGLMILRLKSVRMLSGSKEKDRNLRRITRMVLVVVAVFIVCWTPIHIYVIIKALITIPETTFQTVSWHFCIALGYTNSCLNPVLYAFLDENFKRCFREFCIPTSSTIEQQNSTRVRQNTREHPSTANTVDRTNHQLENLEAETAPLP

Target: Mu Opiate Receptors (Rattus norvegicus, UniProt P33535)
Assay: Effect of sodium ion on binding to mu opiate receptors in vitro
Design: species or system guinea-pig or rat

[D-Ala^2, D-Leu^3 ] enkephalin
Ki (100 mM NaCl, read-out: Ki, mu opiate receptor, +NaCl): 560 nM | -NaCl/+NaCl (ratio of Ki) (Ki ratio without and with 100 mM NaCl): 37 | Ki (without NaCl, read-out: Ki, mu opiate receptor, -NaCl): 15 nM
